Biological target: human CYP11B2 (Homo sapiens (Human), UniProt P19099)
Assay: V79-Human-CYP11B2 cell assay
Type: cell-based
Settings: V79 cells expressing human CYP11B2; 125 nM 11-deoxycorticosterone; aldosterone by HTRF
Description: V79 cell lines stably expressing the either the human CYP11B2 or the human CYP11B1 enzyme were generated using a standard transfection protocol. V79 cells were transfected with plasmids pTriEx3-Hygro-hCyp11B2 or pTriEx3-Hygro-hCyp11B1 using Lipofectamine2000 reagent. V79 cells that stably express the human CYP11B2 or human CYP11B1 enzyme were selected for and maintained in DMEM supplemented with 10% FBS and 400 μg/mL hygromycin for 2 weeks. Single cell clones were generated by infinite dilution in DMEM supplemented with 10% FBS and 400 μg/mL hygromycin until single colonies were obtained. Clones V79-hCYP11B2-CLE9 and V79-hCYP11B1-CL8C7, were determined to produce the most aldosterone and cortisol, respectively, and were selected for inhibitor screening. […] The amount of product in the supernatant (aldosterone for CYP11B2 assay and cortisol for the CYP11B1 assay) was measured using HTRF-based assay kit (Aldosterone HTRF-CisBio#64ALDPEB, Cortisol HTRF-CisBio #63IDC002-CORT). IC50s for the inhibitor were determined by plotting the amount of product formed against the concentration of inhibitor using sigmoidal dose-response curve (variable slope) fit in GraphPad.

Protein sequences, listed by entry. Tags and fused reporters are not part of them. Residues count along the entry.
UniProt P19099, 25-503: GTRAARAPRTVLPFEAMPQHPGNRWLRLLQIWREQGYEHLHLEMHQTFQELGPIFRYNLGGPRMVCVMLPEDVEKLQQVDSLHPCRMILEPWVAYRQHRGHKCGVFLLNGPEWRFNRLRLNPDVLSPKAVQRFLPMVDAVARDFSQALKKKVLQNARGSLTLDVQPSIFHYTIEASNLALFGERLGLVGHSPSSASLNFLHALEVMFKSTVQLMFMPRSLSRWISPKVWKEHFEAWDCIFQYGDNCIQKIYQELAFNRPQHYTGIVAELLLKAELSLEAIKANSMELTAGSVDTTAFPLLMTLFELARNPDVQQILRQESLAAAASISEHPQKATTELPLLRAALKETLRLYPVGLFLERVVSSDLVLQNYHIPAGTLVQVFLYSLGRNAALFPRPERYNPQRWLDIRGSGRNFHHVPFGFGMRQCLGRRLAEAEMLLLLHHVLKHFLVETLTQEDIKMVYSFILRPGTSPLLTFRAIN

`CC(=O)N1CCc2cc(-c3cncc(F)c3)c(F)cc21` [Example 48, 1-(6-fluoro-5-(5-fluoropyridin-3-yl)indolin-1-yl)ethanone] was tested, and the IC50 was 690 nM.
